Env fusion inh – inhibitors of HIV-1 Env-driven cell-cell fusion, primary screen, HeLa-JRFL effector, CEM21 target cells, luciferase | inhibition, % at 12.3 µM | AID 651610, 2012 | hit rate 1.1% among 360,000;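 active = mean replicate inhibition score of at least 50 and every replicate individually at or above 50; inconclusive = only one of the two criteria met; inactive = mean below 50 and not all replicates reaching 50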;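 note: 0% = plate neutral controls and 100% = maraviroc near 300 nM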
PGC1a acetyl inh – inhibitors of PGC1a acetylation signal, primary screen, cell-based, U2OS, AlphaScreen, inhibitor mode | hit rate 0.17% among 350,000 | inhibition, % at 15.6 µM | AlphaScreen anti-acetyl-lysine; with virally co-expressed GCN5 acetyltransferase;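 active = every replicate shows inhibition of at least 40%; inconclusive = mean inhibition at least 40% but some replicate below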;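 note: 0% = neutral control wells and 100% = positive control wells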
Yeast UUG start – modulators of start codon recognition fidelity in yeast. S. cerevisiae UUG-firefly luciferase reporter, luminescence/redox ratio. activity score, % at 18.7 µM. 0.13% of 350,000 active. AID 602363;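 active = replicate mean at a twofold rise or more, about +100% in these data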;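 also: firefly luciferase made from a UUG start codon reports start codon fidelity; reporter light over untreated wells divided by growth signal over untreated wells; some hits fall short of that in this replicate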
Cneo AK release – Cryptococcus neoformans cell lysis inducers, primary screen, AK release luminescence, single concentration. C. neoformans lysis, adenylate kinase release luminescence, 4 h; normalised: neutral wells 0, clomiphene wells 100. lysis activity, % at 15 µM. hit rate 0.2% among 360,000. AID 651654, 2012;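 active = mean lysis activity across replicates of at least 80%, whatever share of replicates individually reach that level; inactive = mean lysis activity below 80%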
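Material – log-phase Cryptococcus neoformans yeast cells · Input – 5 × 10^6 yeast cells/mL · Medium – fresh YPD growth medium · Doses – single compound concentration per well · Timing – static 4 h at 37 °C with compound, 1 h detection · Detection – adenylate kinase release luminescence · Read-out – signal increase indicating cell lysis · Control set – Clomiphene as positive lysis control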
miR-122 sensor – miR-122 Renilla sensor signal increase in Huh7, primary screen, miR-122 inhibitor project, cell-based, single point, plate reader; Huh7 miR-122 Renilla luciferase sensor, 48 h; neutral wells = 0, positive control = 100; activation (reporter increase), % at 12.5 µM; hit rate 0.3% among 340,000;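 active = mean replicate activation score at least 90 and every replicate individually at or above 90; inconclusive = only one of the two criteria met; inactive = neither criterion met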;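 note: higher luciferase means less miR-122 activity so hits act as miR-122 inhibitors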
FN deposit inh – inhibitors of fibronectin matrix deposition, primary screen, AH1F cells, Alexa488-fibronectin fluorescence, plate reader | AH1F fibroblasts, overnight | inhibition, % at 12.6 µM | hit rate 0.086% among 350,000;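 active = mean inhibition across replicates of 30% or more, regardless of how many single replicates reach that level; inconclusive = mean under 30% yet at least half of replicates reach 30%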;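 note: positive control wells lacked labelled fibronectin entirely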
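Assay system: AH1F fibroblasts / Quantity: 10000 cells per well / Medium: DMEM plus 2% serum, read in PBS / Reagent: labelled fibronectin 24 nM / Dosing: single dose, pinned / Times: 1 h cell attachment, overnight exposure to compound and label / Signal: fluorescence, ex 485 nm, em 525 nm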
Starred values were filed as active, the others as inactive; ? = inconclusive; / = no result given. Only some compounds are listed: those with a hit (about 1.5% of all), similar ones and a draw of the others.

| structure | Env fusion inh | PGC1a acetyl inh | Yeast UUG start | Cneo AK release | miR-122 sensor | FN deposit inh |
| --- | --- | --- | --- | --- | --- | --- |
| NC(N)=N/N=C/c1cn(-c2ccccc2)nc1-c1cccs1 | -65 | / | / | / | / | 35* |
| O=c1c2ccccc2nc(-c2cccs2)n1-c1ccccc1 | / | -9 | -7 | 0 | 0 | / |
| C[C@]12CC[C@H](O)C[C@@H]1CC[C@@H]1[C@@H]2CC[C@]2(C)[C@@H](C(=O)O)C[C@@H]12 | -5 | -10 | 2 | 0 | -4 | 0 |
| COc1cccc(OC)c1C(=O)Nc1nc(N)n(-c2ccccc2)n1 | -57 | -1 | 61 | 20 | -6 | -25 |
| CN(Cc1cccc(-c2cccnc2)c1)C(=O)Oc1ccc([N+](=O)[O-])cc1 | 134* | / | / | / | / | / |
| Cc1nc(-c2cccc(CN(C)C(=O)Oc3ccc([N+](=O)[O-])cc3)c2)no1 | 24 | / | / | / | / | -2 |
| CC(=O)c1c(C)n(C2CCCCC2)c2ccc(O)cc12 | 62* | 55* | / | / | / | 5 |
| CC(=O)c1c(C)n(Cc2ccccc2)c2ccc(O)cc12 | 36 | 8 | -20 | 3 | -18 | 3 |
| CC12CCC3C(CCC4CC(=O)OCC43C)C1CCC2O (stereo not drawn) | / | -9 | -9 | -1 | -5 | 4 |
| COC(COC(N)=O)C1=C(N2CC2)C(=O)C(C)=C(N2CC2)C1=O (stereo not drawn) | 26 | -4 | / | / | -5 | -2 |
| CC1=C(N2CC2)C(=O)C(CO)=C(N2CC2)C1=O | 80* | 41 | / | / | -4 | -5 |
| CC12CCC(=O)C=C1C=CC1C2CCC2(C)C(O)CCC12 (stereo not drawn) | 81* | -2 | -14 | -14 | -14 | 14 |
| CNC(=O)Oc1ccc2ncccc2c1 | -15 | 4 | -5 | -3 | -14 | / |
| CCC(C)C1NC(=O)C(NC(=O)C(CC(C)C)N(C)C(=O)C2CCCN2C(=O)C(C)O)C(C)OC(=O)C(Cc2ccc(OC)cc2)N(C)C(=O)C2CCCN2C(=O)C(CC(C)C)NC(=O)[C@H](C)C(=O)[C@H](C(C)C)OC(=O)CC1O (stereo partly drawn) | 83* | 33 | / | / | -14 | 23 |
| Fc1ccc(CNCCc2c[nH]c3ccccc23)cc1 | -14 | -14 | -7 | -2 | 15 | 8 |
| CCOc1cc(CNCCc2c[nH]c3ccccc23)cc(Cl)c1OCC | 68* | / | / | / | / | 2 |
| Fc1ccccc1CNCCc1c[nH]c2ccccc12 | 19 | -11 | -15 | 0 | / | 2 |
| CCOc1c(Cl)cc(CNCCc2c[nH]c3ccccc23)cc1OC | 64* | -13 | / | / | -1 | -5 |
| Cc1ccc(-c2nc3ccccc3c(=O)n2-c2cc(C)ccn2)cc1 | -41 | 3 | -15 | -2 | 1 | -2 |
| CN1CCN(C(=O)OC2c3nccnc3C(=O)N2c2ccc(Cl)cn2)CC1 (stereo not drawn) | / | / | 1 | -3 | / | / |
| COc1ccc(-n2nnnc2C(CCc2ccccc2)N2CCC(n3c(=O)[nH]c4ccccc43)CC2)cc1 (stereo not drawn) | 14 | 55* | -13 | 0 | -19 | / |
| CCC(c1nnnn1Cc1ccccc1)N1CCC(n2c(=O)[nH]c3ccccc32)CC1 (stereo not drawn) | 55* | 25 | 6 | -13 | 0 | 8 |
| CCCCn1nnnc1C(CCc1ccccc1)N1CCC(n2c(=O)[nH]c3ccccc32)CC1 (stereo not drawn) | -81 | -14 | 2 | 1 | -4 | -4 |
| CCC(C)n1c(O)c(C=NC(C)c2ccccc2)c(=O)[nH]c1=S (stereo not drawn) | 3 | / | / | / | / | 5 |
| CCOP(=O)(OCC)C(NC(=O)c1ccccc1)C(Cl)(Cl)Cl (stereo not drawn) | / | 2 | -11 | 3 | -3 | 0 |
| CC(=O)OC1CC(OC2C(O)CC(OC3C(O)CC(OC4CCC5(C)C(CCC6C5CCC5(C)C(C7=CC(=O)OC7)CCC65O)C4)OC3C)OC2C)OC(C)C1OC1OC(CO)C(O)C(O)C1O (stereo not drawn) | 69* | ? | / | / | 2 | 5 |
| O=C1C=CC(=O)C2C1C1(Cl)C(Cl)=C(Cl)C2(Cl)C1(Cl)Cl (stereo not drawn) | 66* | 3 | -15 | 4 | -3 | -25 |
| COCC(=O)N1Cc2ccccc2-n2nncc2C1 | -1 | 5 | -5 | 4 | -4 | 3 |
| CC(Cc1ccc(O)cc1)NCC(O)c1cc(O)cc(O)c1 (stereo not drawn) | 74* | -4 | -16 | 2 | -5 | 11 |
| C[C@H](Cc1ccc(OCC(=O)O)cc1)NC[C@H](O)c1cccc(Cl)c1 | 14 | / | / | / | / | -4 |
| COc1cc(C)c(CNCCc2c[nH]c3ccccc23)cc1C | 81* | -29 | -5 | 1 | -18 | -10 |
| COc1cccc(CNCCc2c[nH]c3ccccc23)c1 | 25 | 0 | 8 | -2 | 0 | 1 |
| COc1ccc(CNCCc2c[nH]c3ccccc23)c(OC)c1C | 71* | -15 | 2 | 4 | -4 | 4 |
| CC(C)(C)c1cc([N+](=O)[O-])cc(C(C)(C)C)c1O | 58* | / | / | / | / | 5 |
| COC1=C(C)C(=O)C2=C(C1=O)C(CO)N1C(C#N)C3CC4C(C1C2N1CCOC41)N3C (stereo not drawn) | 67* | -3 | / | / | -3 | -12 |
| COC(=O)c1ccc(N2CCN(C)CC2)c([N+](=O)[O-])c1 | 21 | -3 | / | / | / | / |
| COC(=O)C12OCC34C(CC5C(C)=C(O)C(=O)CC5(C)C3C(O)C1O)OC(=O)C(OC(=O)/C=C(\C)C(C)C)C24 (stereo not drawn) | 84* | 86* | / | / | -7 | 13 |
| Nc1ccc(CC2=NCCN2)cc1 | 0 | / | / | / | 1 | / |
| CCOC(=O)[C@@]1(C#N)[C@@H]2C=CC(C(N)=O)=CN2[C@@H](C(N)=O)[C@@H]1c1cccc(Cl)c1 | -58 | 10 | 0 | 3 | 17 | 4 |
| CCOC(=O)[C@]1(C#N)[C@@H]2C=CC(C(N)=O)=CN2[C@@H](C(N)=O)[C@@H]1c1ccc(F)cc1 | 5 | 88* | / | / | / | 13 |
| COC1C(C)OC(OC2CC(C)(O)Cc3cc4c(c(O)c32)C(=O)c2c(O)cc3c(c2C4=O)OC2OC3(C)C(O)C(N(C)C)C2O)C(OC)C1(C)OC (stereo not drawn) | 71* | / | / | / | / | -4 |
| O=c1c2ccccc2nc(C[n+]2ccccc2)n1-c1cccc(C(F)(F)F)c1 | -55 | / | 0 | 3 | -1 | -5 |
| CCOP(=O)(OCC)/C(C#N)=C/c1ccoc1 | 4 | / | / | / | / | 0 |
| COc1cc2c(c(OC)c1O)-c1ccc(OC)c(=O)cc1C(NC(=O)C(F)(F)F)CC2 (stereo not drawn) | -111 | / | / | / | / | 0 |

Complete entries from above. Order of values: Env fusion inh, PGC1a acetyl inh, Yeast UUG start, Cneo AK release, miR-122 sensor, FN deposit inh
`CCOC(=O)[C@@]1(C#N)[C@@H]2C=CC(C(N)=O)=CN2[C@@H](C(N)=O)[C@@H]1c1cccc(Cl)c1` is listed with -58, 10, 0, 3, 17, 4
`CC(C)(C)c1cc([N+](=O)[O-])cc(C(C)(C)C)c1O` is listed with 58*, /, /, /, /, 5
`COc1cccc(CNCCc2c[nH]c3ccccc23)c1` is listed with 25, 0, 8, -2, 0, 1
`COc1ccc(CNCCc2c[nH]c3ccccc23)c(OC)c1C` is listed with 71*, -15, 2, 4, -4, 4
`CCOC(=O)[C@]1(C#N)[C@@H]2C=CC(C(N)=O)=CN2[C@@H](C(N)=O)[C@@H]1c1ccc(F)cc1` is listed with 5, 88*, /, /, /, 13
